The values below come from US20060094783A1 (Tava Pharmaceutical Industries, Ltd., priority 1990, published 2006).

The data set can be described thus: Physicochemical properties of PAI salts. As to conditions: saturated PAI salt water solution.

Consider tartarate, for which the Solubility – broadly, the concentration that dissolves in the medium under given conditions – came to 33 mg/mL.
